## scFv variants of Ab-14 (light chain) against a SARS-CoV-2 spike peptide

Target peptide (SARS-CoV-2 spike, HR2 region): PDVDLGDISGINAS

Ab-14 is the parent antibody, in scFv form: VH, then three GGGGS repeats, then VL. The heavy chain is unchanged in all variants.
VH: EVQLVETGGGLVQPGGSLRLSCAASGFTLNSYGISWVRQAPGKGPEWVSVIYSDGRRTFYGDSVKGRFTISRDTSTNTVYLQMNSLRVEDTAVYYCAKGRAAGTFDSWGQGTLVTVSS
VL: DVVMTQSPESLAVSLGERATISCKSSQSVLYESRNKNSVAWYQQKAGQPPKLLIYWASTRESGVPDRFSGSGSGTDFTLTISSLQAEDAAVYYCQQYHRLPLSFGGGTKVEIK

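Phage display of a naive human antibody library on the peptide gave the parent. These sequences belong to a second round, designed from the earlier measurements on random variants of the parent. Their group label is 14L_En_Gen (En: ensemble of fine-tuned language models; Gen: genetic algorithm). The scFvs were displayed on barcoded MATa yeast, the peptide on MATalpha yeast. After mating in shaken culture at 30 °C for 16 h, diploids were selected and their barcode pairs sequenced. A regression on co-assayed BCL2-family reference pairs converts the normalised counts of each replicate to an apparent Kd. Mating was done six times.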

Variants are written as CDR1, CDR2 and CDR3 of the light chain (limits as in the source). Parent: KSSQSVLYESRNKNSVA, WASTRES, QQYHRLPLS. Scale: log10 of Kd in nM, estimated from mating counts; low values are strong binders. A mean of the replicates is given; it leaves out those without a signal. "nd" marks a missing value. The strain was present, yet no cells mated with the target were sequenced in that replicate, which points to weak or no binding.

The variant MVSQLMNLGQFAINSVA, QATIRNS, QQYDRLPLA showed nd, nd, nd, nd, 2.40, 2.19 (mean 2.30; controls 0 of 18).
The variant KLSMITGHMSMAKDNVA, EMVNREK, QQYNRLPLS showed 0.73, 1.04, 0.66, 1.21, 1.28, 0.74 (mean 0.94; controls 1 of 18).
The variant IVSQLMLWGMHHKNSIA, EAQTRLN, QQYERLPLF showed nd, nd, nd, nd, nd, nd (controls 0 of 18).
The variant MVSQLMLWGLHATNSIA, EAETRGN, QQYDRLPLF showed 1.51, nd, 1.80, nd, 1.50, 1.55 (mean 1.59; controls 0 of 18).
The variant MVSQLMVWGLHHKNSIA, EAQTRLN, QQYDRLPLF showed nd, nd, 1.56, nd, nd, nd (controls 0 of 18).
The variant HITYGMMVHGRHAKSIA, QAEERAK, QQYDRLPLA showed 1.97, 1.99, 0.94, 2.11, 2.60, 1.53 (mean 1.86; controls 0 of 18).
The variant KVSSFMRGLRMRTDSIA, DNETRVS, QQYDRLPLS showed 1.97, 1.84, 1.67, 2.12, 1.78, 1.84 (mean 1.87; controls 3 of 18).
The variant KVSEFMRGLMMRKDNIA, DNVTRQN, QQYDRLPLS showed nd, 3.09, 2.32, 3.11, 2.96, nd (mean 2.87; controls 2 of 18).
The variant MVNGIMDHLSKNSNNVA, ETTERNS, QQYDRLPLS showed 0.05, 0.16, 0.05, 0.13, 0.20, 0.32 (mean 0.15; controls 0 of 18).
The variant QIGMLLNFESYKINNVA, QMSTRIN, QQYDRLPLS showed 0.60, 0.70, 0.75, 1.06, 0.84, 0.95 (mean 0.82; controls 2 of 18).
The variant HITYGMMLMGRHSKSIA, QAEERAK, QQYDRLPLI showed 1.87, nd, 1.26, 0.97, 1.47, 1.66 (mean 1.45; controls 0 of 18).
The variant MVTQMAMTGMTNKRSVA, NAETRED, QQYHHLPLI showed nd, 3.58, 2.28, 2.17, 1.10, 1.96 (mean 2.22; controls 0 of 18).
The variant MISQVMNTLTRQGNNVA, DLAERED, QQYFRLPLS showed 0.51, 0.31, 0.21, 0.30, 0.41, 0.53 (mean 0.38; controls 1 of 18).
The variant MMSQVTGMGQRHRNNVA, QTSTRED, QQYDRLPLI showed 1.08, 2.11, 0.25, 0.79, 0.63, 1.23 (mean 1.01; controls 2 of 18).
The variant KLTQHMRFEQKKKNNIA, EVTTRSK, QQYYRLPLA showed nd, nd, nd, nd, nd, nd (controls 0 of 18).
The variant KIYQFGLNHSHQTNSIA, DQECREA, QQYDRLPLS showed 3.10, 2.45, nd, nd, 1.81, nd (mean 2.45; controls 1 of 18).
The variant HLGLATMLEEYARNSVA, NNSTREK, QQYDRLPLS showed nd, nd, nd, 2.75, nd, 3.39 (mean 3.07; controls 2 of 18).
The variant QIGMLLNFESKIVNNVA, QMETRVE, QQYDRLPLS showed 0.21, 0.39, 0.16, 0.23, 0.13, 0.51 (mean 0.27; controls 1 of 18).
The variant TISQMTSLFSQSINNVA, EVSTREE, QQYDRLPLA showed 0.52, 1.12, 0.72, 0.80, 0.66, 0.71 (mean 0.75; controls 2 of 18).
The variant SISGFMKSLSAHTNSVA, DMTNRED, QQYDRLPLS showed 0.89, 0.65, 0.78, 0.90, 0.69, 1.32 (mean 0.87; controls 0 of 18).
The variant IVSQLMLWGLHAKNSIA, EAETRPN, QQYDRLPLM showed nd, nd, nd, nd, nd, nd (controls 0 of 18).
The variant QIYQAMHTLSQMKNNVA, DVNERGQ, QQYFRLPLS showed 0.35, 0.21, -0.11, -0.06, 0.15, 0.08 (mean 0.10; controls 0 of 18).
The variant TISQVLNTLTRHGNNVA, DLAERED, QQYFRLPLS showed 0.80, 0.53, 0.83, 0.77, 0.63, 1.02 (mean 0.76; controls 0 of 18).
The variant KIGMTLNTLMHTKNNVA, DLVTREN, QQYHRLPLS showed 2.78, nd, 1.61, 2.57, 2.43, 2.23 (mean 2.32; controls 0 of 18).
The variant HMSMLTMMGMRQRNSVA, QMTTREN, QQYDRLPLM showed 0.93, 0.90, 0.49, 0.80, 0.67, 0.71 (mean 0.75; controls 0 of 18).
The variant KLSQITGHMSMSKNNVA, EMVTREN, QQYDRLPLS showed 0.35, 0.37, 0.44, 0.54, 0.24, 0.38 (mean 0.39; controls 0 of 18).
The variant KVSEFMRGLMMRTDSIA, DNVTRNN, QQYDRLPLS showed nd, 4.33, nd, nd, 2.34, 2.63 (mean 3.10; controls 2 of 18).
The variant KISQMVRVGATVSNSIA, EEVTRAK, QQYHRLPLA showed 1.43, 1.16, 1.13, 0.97, 1.39, 1.51 (mean 1.27; controls 1 of 18).
The variant TISQVMNTLTRNGNNVA, DLQEREK, QQYFRLPLS showed 0.23, 0.02, -0.07, 0.10, -0.02, 0.23 (mean 0.08; controls 2 of 18).
The variant KITATMRFEQKNKNNIA, EVSTRSK, QQYVRLPLA showed -0.03, -0.19, -0.43, -0.12, 0.36, 0.02 (mean -0.07; controls 0 of 18).
The variant KLQSITGTEKVRGNNVA, EMETREN, QQYNRLPLS showed 0.61, 0.34, 0.13, 0.01, 0.31, 0.41 (mean 0.30; controls 0 of 18).
The variant KLYDMAAVTMNNIRNVA, DNSTREE, QQYHRLPLS showed 1.31, 0.85, 1.05, 0.43, 1.19, 0.88 (mean 0.95; controls 3 of 18).

For reference, 5 entries of the list once more:

With QIYQAMHTLSQMKNNVA, DVNERGQ, QQYFRLPLS the result was 0.35, 0.21, -0.11, -0.06, 0.15, 0.08 (mean 0.10; controls 0 of 18).
With KLSQITGHMSMSKNNVA, EMVTREN, QQYDRLPLS the result was 0.35, 0.37, 0.44, 0.54, 0.24, 0.38 (mean 0.39; controls 0 of 18).
With MISQVMNTLTRQGNNVA, DLAERED, QQYFRLPLS the result was 0.51, 0.31, 0.21, 0.30, 0.41, 0.53 (mean 0.38; controls 1 of 18).
With QIGMLLNFESYKINNVA, QMSTRIN, QQYDRLPLS the result was 0.60, 0.70, 0.75, 1.06, 0.84, 0.95 (mean 0.82; controls 2 of 18).
With HMSMLTMMGMRQRNSVA, QMTTREN, QQYDRLPLM the result was 0.93, 0.90, 0.49, 0.80, 0.67, 0.71 (mean 0.75; controls 0 of 18).

Of ten entries with the parent sequence, four were seen in most replicates (averages 0.34 to 2.37), three in one and three in none, so single entries are noisy. In the paper, a design with two or fewer of six values counts as a poor binder. A sequence measured in both rounds can read differently, since the two assays cover different ranges. Three control strains display no target. For all light chain designs, 4% of the pairings with them gave a signal, with a median of 2.64 and one signal in twenty below 1.59, so weak values seen in few replicates may be background. Also given: how often the same scFv was detected with the empty control strains.

The measurements come from Li et al. 2023 (doi:10.1038/s41467-023-39022-2) through the FLAb antibody collection.